{"sequences": {"note": "Sequences of proteins named here, by UniProt entry; tags and fusion partners are left off.", "UniProt O95342, whole entry": "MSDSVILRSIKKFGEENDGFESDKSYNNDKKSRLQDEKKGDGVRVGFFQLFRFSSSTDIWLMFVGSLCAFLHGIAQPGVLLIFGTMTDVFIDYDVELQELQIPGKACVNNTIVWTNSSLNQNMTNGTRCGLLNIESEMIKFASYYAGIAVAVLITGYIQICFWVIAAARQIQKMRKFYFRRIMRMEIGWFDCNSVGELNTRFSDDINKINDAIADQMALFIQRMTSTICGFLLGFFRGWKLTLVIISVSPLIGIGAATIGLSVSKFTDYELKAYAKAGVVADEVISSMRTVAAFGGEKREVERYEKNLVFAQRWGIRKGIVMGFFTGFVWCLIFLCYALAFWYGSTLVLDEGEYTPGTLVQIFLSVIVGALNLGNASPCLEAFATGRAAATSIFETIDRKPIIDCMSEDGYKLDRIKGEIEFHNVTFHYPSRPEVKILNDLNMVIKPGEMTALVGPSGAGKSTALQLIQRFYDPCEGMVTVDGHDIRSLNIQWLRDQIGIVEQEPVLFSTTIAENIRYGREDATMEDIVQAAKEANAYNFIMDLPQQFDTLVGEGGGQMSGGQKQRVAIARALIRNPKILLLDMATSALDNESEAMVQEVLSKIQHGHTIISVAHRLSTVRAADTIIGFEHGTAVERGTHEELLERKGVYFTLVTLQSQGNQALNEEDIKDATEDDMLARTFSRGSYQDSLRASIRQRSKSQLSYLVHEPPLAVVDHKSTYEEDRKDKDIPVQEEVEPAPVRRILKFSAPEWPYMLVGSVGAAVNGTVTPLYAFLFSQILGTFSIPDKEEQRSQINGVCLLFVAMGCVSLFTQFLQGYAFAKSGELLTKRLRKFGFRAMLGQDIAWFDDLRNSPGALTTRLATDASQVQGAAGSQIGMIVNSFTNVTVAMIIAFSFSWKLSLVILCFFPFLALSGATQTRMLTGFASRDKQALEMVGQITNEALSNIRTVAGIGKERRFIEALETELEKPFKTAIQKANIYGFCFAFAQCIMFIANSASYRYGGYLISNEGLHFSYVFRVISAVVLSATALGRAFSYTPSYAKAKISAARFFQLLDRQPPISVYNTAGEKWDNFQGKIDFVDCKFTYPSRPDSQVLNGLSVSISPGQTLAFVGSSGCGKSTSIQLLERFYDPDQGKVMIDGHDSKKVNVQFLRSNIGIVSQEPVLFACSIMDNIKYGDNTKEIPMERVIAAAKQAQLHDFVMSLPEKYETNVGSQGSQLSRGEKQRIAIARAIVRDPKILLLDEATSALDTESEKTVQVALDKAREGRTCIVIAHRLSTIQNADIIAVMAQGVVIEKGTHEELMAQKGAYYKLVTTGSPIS"}, "source": "patent US12146155B2", "about": "“Method for constructing human pluripotent stem cell-derived liver organoid having enhanced drug metabolic potential and liver organoid constructed by same method” (KOREA RESEARCH INSTITUTE OF CHEMICAL TECHNOLOGY, priority 2021, dated 2024)", "target": "BSEP (Homo sapiens, UniProt O95342)", "details": "10 μM ketoconazole, 24 hours; D(−)-HO and S(−)-HO", "method": "Specifically, the liver organoids were recovered on Matrigel and washed three times with DPBS. For CDFDA (5(6)-carboxy-2′,7′-dichlorofluorescein diacetate) staining, the liver organoids treated with or without 2 mM probenecid for 3 hours were stained with 10 μM CDFDA (Sigma-Aldrich) for 15 minutes at 37° C., 5% CO2. […] All samples were washed three times with DPBS, stained with Hoechst 33342, and observed under an Olympus FV3000 confocal microscope."}
{"compound": "CC(=O)N1CCN(c2ccc(OCC3COC(Cn4ccnc4)(c4ccc(Cl)cc4Cl)O3)cc2)CC1", "note": "(stereo not shown) [ketoconazole]", "values": [{"measurement": "BSEP-specific fluorescence (CLF) when transporter blocked", "value": "accumulated in the lumen of the liver organoids"}]}
